Data as given in patent US6353015B1, “Method of treating neurodegenerative disorders” (St. Elizabeth's Medical Center, priority 1998, dated 2002).

Tested on: AF64A-treated rats
Details: rat, in vivo

**Q.** Which “rank among the studied compounds in the active avoidance test” value does the source give for CC(=O)NCCc1c[nH]c2ccc(O)cc12 [NAS, N-acetylserotonin] here?
**A.** weakest
